Results published in PubChem BioAssay AID624304 (Sanford-Burnham Center for Chemical Genomics, 2012).
This is a selection; strong and weak results do not stand in their true shares. Calls of active or inactive are those of the source.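 Rule for the calls: active = interference check ratio from 0.5 to 1.5 plus GFP to RFP signal ratio inhibition reaching or exceeding a fixed threshold (cut at about 30% in these data, passing the limit was not always enough); inactive = the rest.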

Assay: suppressors of acrylamide-induced Pgst-4::GFP reporter in worms, primary screen, SKN-1 inhibitor project, whole organism, uHTS, GFP/RFP fluorescence ratio, strain VP596 (AID 624304)
Settings: C. elegans VP596 Pgst-4::GFP/RFP ratio, 24 h, at 21.8 µM, stronger effect = higher value

SMILES | inhibition
CSc1ccc(C(=O)NCC2(N3CCOCC3)CCCCC2)cc1 | inactive: 10.3%
O=C(NCC1(N2CCCCC2)CCCCC1)c1cncc(Br)c1 | inactive: 18.2%
CN1CCC(Nc2cccc(F)c2)CC1 | inactive: 4.41%
COc1ccc(C(c2nnnn2C2CCCC2)N2CCC(n3c(=O)[nH]c4ccccc43)CC2)cc1 (stereo not drawn) | inactive: 9.75%
CCCOc1ccc(C(=O)NCC2(N(C)C)CCCCC2)cc1OC | inactive: 8.29%
Cc1ccc(C(=O)NCC2(N(C)C)CCCCC2)o1 | inactive: 14.5%
CCCCn1nnnc1C(c1ccccc1OC(F)(F)F)N1CCC(n2c(=O)[nH]c3ccccc32)CC1 (stereo not drawn) | inactive: 4.8%
CC(C)c1ccc(NC2CCN(C(=O)OC(C)(C)C)CC2)cc1 | inactive: 4.05%
CN(C)c1cccc(C(=O)NCC2(N3CCCCC3)CCCCC2)c1 | inactive: -0.915%
COc1ccc(CN(CCCl)CCCl)cc1Cl | inactive: -0.0863%
O=C(NCC1(N2CCOCC2)CCCCC1)c1cc(F)c(F)cc1Cl | inactive: -4.58%
CCC(c1nnnn1C(C)(C)C)N1CCC(n2c(=O)[nH]c3ccccc32)CC1 (stereo not drawn) | inactive: 7.93%
COc1cc(OC)c(C(=O)NCC2(N(C)C)CCCCC2)cc1OC | inactive: 21.6%
CCCCn1nnnc1C(c1ccnc2ccccc12)N1CCC(n2c(=O)[nH]c3ccccc32)CC1 (stereo not drawn) | inactive: 11.5%
Cc1cc(C)cc(N(C(=O)c2ccccc2)C2CCN(C(=O)OC(C)(C)C)CC2)c1 | inactive: 29.1%
O=c1[nH]c2ccccc2n1C1CCN(C(c2ccccc2OC(F)(F)F)c2nnnn2C2CCCCC2)CC1 (stereo not drawn) | inactive: 12.7%
O=C(NCC1(N2CCCCC2)CCCCC1)c1ccc(Cl)nc1 | inactive: 10.6%
O=C(NCC1(N2CCOCC2)CCCCC1)c1cc2ccccc2o1 | inactive: 10.4%
COc1ccc(Cl)cc1C(=O)NCC1(N2CCOCC2)CCCCC1 | inactive: 1.38%
O=c1[nH]c2ccccc2n1C1CCN(C(c2cc3ccccc3o2)c2nnnn2C2CCCCC2)CC1 (stereo not drawn) | inactive: -10.6%
O=C(OC1CN2CCC1CC2)C1c2ccccc2Oc2ccccc21 (stereo not drawn) | inactive: -3.42%
O=C(NCC1(N2CCCCC2)CCCCC1)c1ccc(Cl)s1 | inactive: 16.2%
N#CC1(Nc2ccccc2)CCN(Cc2ccccc2)CC1 | inactive: -0.857%
CCCCn1nnnc1C(c1ccc(OC)cc1)N1CCC(n2c(=O)[nH]c3ccccc32)CC1 (stereo not drawn) | inactive: 1.73%

SMILES | inhibition
CCOC(=O)N1CCC(Nc2ccc(OC)cc2)CC1 | inactive: 5.46%
CCC(c1nnnn1C1CCCC1)N1CCC(n2c(=O)[nH]c3ccccc32)CC1 (stereo not drawn) | inactive: -13.9%
CC(C)(C)OC(=O)N1CCC(N(C(=O)c2ccccc2)c2ccc(F)cc2)CC1 | inactive: -18.6%
COc1ccc(C(=O)NCC2(N3CCCCC3)CCCCC2)c(OC)c1OC | inactive: 2.77%
COc1ccc(C(=O)NCC2(N3CCCCC3)CCCCC2)cc1 | inactive: 3.17%
CCCCn1nnnc1C(c1cccs1)N1CCC(n2c(=O)[nH]c3ccccc32)CC1 (stereo not drawn) | inactive: 20.1%
O=C(NCC1(N2CCCCC2)CCCCC1)c1cccs1 | inactive: 9.59%
CCCCn1nnnc1C(CC)N1CCC(n2c(=O)[nH]c3ccccc32)CC1 (stereo not drawn) | inactive: 8.54%
O=C(NCC1(N2CCCCC2)CCCCC1)c1ccc(=O)[nH]c1 | inactive: 21.3%
Cc1cccc(NC2(C#N)CCN(Cc3ccccc3)CC2)c1 | inactive: -2.16%
CSc1ccccc1C(=O)NCC1(N2CCCCC2)CCCCC1 | inactive: 17.4%
O=c1[nH]c2ccccc2n1C1CCN(C(c2ccccc2)c2nnnn2C2CCCCC2)CC1 (stereo not drawn) | inactive: 16.5%
COc1cc(C(=O)NCC2(N(C)C)CCCCC2)ccc1OC(F)F | inactive: 8.22%
CCOC(=O)N1CCC(Nc2cccc(C)c2)CC1 | inactive: -9.92%
O=c1[nH]c2ccccc2n1C1CCN(C(c2cccc3ccccc23)c2nnnn2C2CCCC2)CC1 (stereo not drawn) | active: 38.6%
O=C1CCN(Cc2ccccc2)CC1 | inactive: -3.68%
CC(C)(C)n1nnnc1C(c1ccccc1)N1CCC(n2c(=O)[nH]c3ccccc32)CC1 (stereo not drawn) | inactive: 11.1%
CCOc1ccc(C)cc1CN(CCCl)CCCl | inactive: -0.64%
CCOC(=O)N1CCC(Nc2ccc(F)cc2)CC1 | inactive: -0.186%
COc1ccc(NC2CCN(CCc3ccccc3)CC2)c(OC)c1 | inactive: -5.8%
O=C(NCC1(N2CCCCC2)CCCCC1)c1ccc(F)cc1 | inactive: 9.96%
CCCCOc1ccc(C(=O)NCC2(N3CCOCC3)CCCCC2)cc1 | inactive: 9.36%
CCCCn1nnnc1C(c1cc2ccccc2o1)N1CCC(n2c(=O)[nH]c3ccccc32)CC1 (stereo not drawn) | inactive: 26.2%
O=P1(N(CCCl)CCCl)SCCCS1 | inactive: -20.5%
